# Article PMC5356311, “Experimental recreation of the evolution of lignin-degrading enzymes from the Jurassic to date” (Biotechnology for Biofuels, 2017)
# System: CaPo
# Settings: read-out: CaPo; 0.4 mM H2O2, 0.1 M tartrate, pH 3.0, 25 °C; low efficiency site (heme channel)
smiles,measurement,value
CCn1c(=NN=c2sc3cc(S(=O)(=O)O)ccc3n2CC)sc2cc(S(=O)(=O)O)ccc21 [ABTS],Km,3.17 ± 0.27 mM
